This assay addresses T1, HLA-DRB1*11:01 (human).
T1 construct: MHC class II molecule; how it was prepared for the assay is not described
The assay can be described thus: HLA class II competition binding assay.

Regarding TLTAFGFASADLIEI [ApoB100 peptide 3563.0005], the IC50 stood at 6.99 µM.

The record behind these values is US20220259288A1 (LA JOLLA INSTITUTE FOR ALLERGY AND IMMUNOLOGY, published 2022).
